Source: patent US10548982B2, “Reversible covalent linkage of functional molecules” (priority 2009, dated 2020)

Amino acid sequences for entries named in this document (tags omitted). A change or cut given only in a name is not applied to a line headed by its entry.
UniProt P30874: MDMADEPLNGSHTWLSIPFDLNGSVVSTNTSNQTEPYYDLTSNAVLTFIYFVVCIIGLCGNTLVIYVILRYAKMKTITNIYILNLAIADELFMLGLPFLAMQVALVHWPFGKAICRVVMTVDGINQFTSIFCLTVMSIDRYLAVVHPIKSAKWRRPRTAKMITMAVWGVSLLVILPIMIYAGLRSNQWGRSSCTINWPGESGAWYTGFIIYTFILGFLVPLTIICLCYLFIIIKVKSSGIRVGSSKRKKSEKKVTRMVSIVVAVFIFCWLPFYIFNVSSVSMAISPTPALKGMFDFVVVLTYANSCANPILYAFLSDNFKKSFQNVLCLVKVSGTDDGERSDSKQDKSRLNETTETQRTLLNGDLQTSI

What follows are substances tested against T1, human somatostatin receptor 2 (Homo sapiens, UniProt P30874) (assay: whole cell patch-clamp current recordings of GIRK currents). Conditions: HEK 293 cells expressing HKIR3.1/3.2 channel and human somatostatin receptor 2; 20 μM; clamped at −60 mV.
T1 construct: host or cells: HEK293 cells stably expressing Kir3.1 and Kir3.2A
Assay type: cell-based
Description: HEK 293 cells expressing HKIR3.1/3.2 channel and human somatostatin receptor 2 were treated with these compounds, and whole cell patch-clamp current recordings taken. […] Cell Culture
Cell-culture methods and the generation of stable cell lines were carried out as described in J Biol Chem 275, 921-9 (2000). HEK293 cells (human embryonic kidney cell line) stably expressing Kir3.1 and Kir3.2A channels were maintained in minimum essential medium supplemented with 10% foetal calf serum and 727 μg of G418 (Invitrogen), at 37° C. in humidified atmosphere (95% O2, 5% CO2). Cells were transiently transfected with SSTR2 DNA (Missouri S&T cDNA Resource Center) along with pEGFP-N1 (Clontech) for visualization of transfected cells using epifluorescence. Transfections were performed with 5 μl of Fugene HD (Roche) and 800 ng SSTR2-DNA and 40 ng EGFP-DNA per 97 μl of cell culture medium (containing no serum or antibiotics).
Bridged somatostatins were prepared as described above. Somatostatin and its analogues were dialysed for 24 h at 4° C. in buffer (50 mM sodium phosphate, pH 6.2) to remove the organic solvents. After dialysis the concentration was determined and the peptides stored at 4° C. A final concentration of 20 μM somatostatin and analogues were used (dilution was done in the extracellular patch-clamp buffer).
Whole cell patch-clamp current recordings were performed with an Axopatch 200B amplifier (Axon Instruments) using fire-polished pipettes with a resistance of 3-4 MS pulled from filamented borosilicated glass capillaries (Harvard Apparatus, 1.5 mm OD×1.17 mm ID). Data was acquired and analysed via a Digidata 1322A interface (Axon Instruments) and pCLAMP software (version 8.1, Axon Instruments). A fast perfusion system was used to apply somatostatin and analogues (Rapid Solution Changer, RSC-160, Bio-Logic France). Cells were clamped at −60 mV. […] For each cell it was assessed if flow artifacts resulting from the pressure of drug application were present. […]

Substance	activation of GIRK currents (current amplitude)
dibromomaleimide bridged analogue: somatostatin whose reduced disulfide cysteines are bridged by reaction with 2,3-dibromomaleimide	robust activation of GIRK currents in an amplitude comparable to somatostatin itself
fluorescein dibromomaleimide-bridged analogue: somatostatin bridged with N-fluorescein dibromomaleimide	robust activation of GIRK currents in an amplitude comparable to somatostatin itself
PEGylated-dibromomaleimide bridged analogue: somatostatin bridged with N-PEG dibromomaleimide derivative	robust activation of GIRK currents in an amplitude comparable to somatostatin itself
